Ends that are not written are not given here.

The subject of this test is rat model of AMI. The experiment in a line: Rat model of AMI: heart function (hemodynamic) measurement. The note with it: rats, 20 mg/kg i.v. at 0, 24 and 48 hours after surgery, measured 4 weeks after last injection; vs saline.

On to “WAAYRTHSVDYGRKKRRQRRR [NIMoEsh-Tat, WAAYRTHSVD-YGRKKRRQRRR]”, for which the “left ventricular end diastolic pressure (FIG. 2f)” value is “rescued heart function after AMI”.

The values are drawn from patent US20220362326A1, “INHIBITING ZD17-JNK I[…] A THERAPY FOR ACUTE MYOCARDIAL INFARCTION” (The University of British Columbia, priority 2019, published 2022).
